Experimental findings from ChEMBL document CHEMBL2163302, “Allyl m-trifluoromethyldiazirine mephobarbital: an unusually potent enantioselective and photoreactive barbiturate general anesthetic” (J Med Chem, 2012) are described below.

The target in assay [1] is T1, GABA-A receptor; alpha-1/beta-2/gamma-2 (Homo sapiens, UniProt P14867+P18507+P47870).
T1 sequence (P14867 whole entry): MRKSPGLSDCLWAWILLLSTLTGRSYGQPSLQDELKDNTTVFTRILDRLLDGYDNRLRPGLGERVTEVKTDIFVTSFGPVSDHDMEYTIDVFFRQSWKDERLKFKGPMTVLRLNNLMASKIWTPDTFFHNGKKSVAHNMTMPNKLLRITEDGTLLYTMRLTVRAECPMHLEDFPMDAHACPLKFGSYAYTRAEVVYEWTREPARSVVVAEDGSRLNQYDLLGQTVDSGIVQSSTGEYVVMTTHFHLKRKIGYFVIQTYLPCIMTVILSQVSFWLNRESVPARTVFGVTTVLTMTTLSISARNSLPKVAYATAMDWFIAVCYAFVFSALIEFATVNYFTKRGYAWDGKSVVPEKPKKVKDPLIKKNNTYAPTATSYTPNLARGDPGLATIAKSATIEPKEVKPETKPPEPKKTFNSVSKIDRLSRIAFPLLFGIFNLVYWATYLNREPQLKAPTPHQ
T1 sequence (P47870 whole entry): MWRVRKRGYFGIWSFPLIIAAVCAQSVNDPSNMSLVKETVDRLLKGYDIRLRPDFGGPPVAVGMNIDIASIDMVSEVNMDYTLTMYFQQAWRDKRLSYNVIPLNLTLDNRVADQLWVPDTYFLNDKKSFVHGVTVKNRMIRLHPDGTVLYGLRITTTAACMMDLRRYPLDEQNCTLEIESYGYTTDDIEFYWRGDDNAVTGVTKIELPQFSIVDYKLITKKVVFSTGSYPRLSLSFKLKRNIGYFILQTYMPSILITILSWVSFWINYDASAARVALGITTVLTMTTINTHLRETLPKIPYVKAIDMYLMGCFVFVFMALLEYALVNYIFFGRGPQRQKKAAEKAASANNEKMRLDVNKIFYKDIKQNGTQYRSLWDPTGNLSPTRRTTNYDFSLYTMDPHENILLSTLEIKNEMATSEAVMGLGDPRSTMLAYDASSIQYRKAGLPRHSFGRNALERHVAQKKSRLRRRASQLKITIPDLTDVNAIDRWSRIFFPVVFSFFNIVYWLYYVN
T1 sequence (P18507 whole entry): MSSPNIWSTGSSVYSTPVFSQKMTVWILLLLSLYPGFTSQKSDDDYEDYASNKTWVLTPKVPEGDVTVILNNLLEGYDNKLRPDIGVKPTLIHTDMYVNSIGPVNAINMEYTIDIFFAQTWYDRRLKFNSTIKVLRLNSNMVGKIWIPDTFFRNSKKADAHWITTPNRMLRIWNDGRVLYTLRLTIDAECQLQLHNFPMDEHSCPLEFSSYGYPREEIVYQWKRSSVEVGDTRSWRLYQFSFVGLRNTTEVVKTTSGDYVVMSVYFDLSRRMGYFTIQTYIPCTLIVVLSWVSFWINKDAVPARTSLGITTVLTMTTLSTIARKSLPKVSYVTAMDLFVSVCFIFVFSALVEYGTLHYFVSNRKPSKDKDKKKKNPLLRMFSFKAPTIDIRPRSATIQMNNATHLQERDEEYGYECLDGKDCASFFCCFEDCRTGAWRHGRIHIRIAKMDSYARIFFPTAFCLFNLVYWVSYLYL
Description: Agonist activity at human alpha1beta2gamma2L GABA A receptor expressed in Xenopus laevis oocytes assessed as increase in current response by two-electrode voltage clamp assay. It is filed as functional, cell-based, Oocyte. In general terms: In two-electrode clamp one electrode senses voltage and the other passes current.

For assay [2], the target named is T2, GABA-A receptor; alpha-1/beta-3/gamma-2 (Homo sapiens, UniProt P14867+P18507+P28472).
T2 sequence (P14867 whole entry): T1 sequence (P14867 whole entry)
T2 sequence (P18507 whole entry): T1 sequence (P18507 whole entry)
T2 sequence (P28472 whole entry): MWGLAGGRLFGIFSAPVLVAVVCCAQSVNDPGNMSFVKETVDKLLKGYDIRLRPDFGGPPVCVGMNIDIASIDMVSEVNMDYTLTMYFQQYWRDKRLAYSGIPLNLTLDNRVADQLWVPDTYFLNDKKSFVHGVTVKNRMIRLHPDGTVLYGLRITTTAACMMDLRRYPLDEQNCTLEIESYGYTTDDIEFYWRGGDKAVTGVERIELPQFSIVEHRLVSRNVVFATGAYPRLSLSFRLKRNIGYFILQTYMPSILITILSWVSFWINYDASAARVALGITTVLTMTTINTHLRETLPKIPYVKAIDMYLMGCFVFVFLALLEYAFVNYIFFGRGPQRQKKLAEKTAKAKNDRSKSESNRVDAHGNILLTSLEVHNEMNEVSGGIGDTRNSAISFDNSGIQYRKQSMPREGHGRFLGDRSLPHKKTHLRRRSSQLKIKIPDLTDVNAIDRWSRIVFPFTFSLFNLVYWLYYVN

The target of assay [3] is T1, GABA-A receptor; alpha-1/beta-2/gamma-2.
Assay [4] concerns the target T3, Gamma-aminobutyric acid receptor subunit alpha-1 (Homo sapiens, UniProt P14867).
T3 sequence (P14867 whole entry): T1 sequence (P14867 whole entry)
In words: Displacement of [3H]R-(-)-14 from human FLAG-tagged alpha1 GABA A receptor expressed in HEK293S cells. It counts as cell-based. On the technique in general: Displacement assays read how much labelled ligand stays bound in the presence of the test substance.

Assay [5] has as its target T4, Gamma-aminobutyric acid receptor subunit beta-3 (Homo sapiens, UniProt P28472).
T4 sequence (P28472 whole entry): T2 sequence (P28472 whole entry)
Description: biochemical.

The structures appear in SMILES notation.

Consider `C=CC[C@@]1(c2cccc(C3(C(F)(F)F)N=N3)c2)C(=O)NC(=O)N(C)C1=O`, for which the EC50 (as a rule, the midpoint of the concentration-response curve) in assay [1] worked out at 13 µM; in assay [2] it was 1.2 µM; in assay [3] it was 2.1 µM.

`C=CC[C@]1(c2cccc(C3(C(F)(F)F)N=N3)c2)C(=O)NC(=O)N(C)C1=O`: the EC50 is 61 µM in assay [1] and 14.1 µM in assay [2]. Also, the concentration for half-maximal inhibition (IC50) (commonly the concentration that inhibits the measured activity by half) came out at 120 µM in assay [4] and 170 µM in assay [5].
